Some results for these compounds are left out of this collection, so the calls shown say nothing about other tests.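 Cells were grown in 96-well plates and exposed to each compound for 48 hours at five concentrations; endpoints were interpolated linearly between bracketing concentrations, or set to the highest concentration if not reached. The concentration for 50% growth inhibition is given as GI50. Definition used: TGI = concentration required for complete inhibition of growth.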
How the values were obtained:
Assay in all cases: NCI-60 cell line screen, 48 h
786-0 renal = tested on: 786-0 renal
A498 renal = tested on: A498 renal
A549 NSCLC = tested on: A549 NSCLC
ACHN renal = tested on: ACHN renal
CAKI-1 renal = tested on: CAKI-1 renal
CCRF-CEM leukemia = tested on: CCRF-CEM leukemia
COLO 205 colon = tested on: COLO 205 colon
DU-145 prostate = tested on: DU-145 prostate
EKVX NSCLC = tested on: EKVX NSCLC
HCC-2998 colon = tested on: HCC-2998 colon
HCT-116 colon = tested on: HCT-116 colon
HCT-15 colon = tested on: HCT-15 colon
HL-60(TB) leukemia = tested on: HL-60(TB) leukemia
HOP-62 NSCLC = tested on: HOP-62 NSCLC
HOP-92 NSCLC = tested on: HOP-92 NSCLC
HS 578T breast = tested on: HS 578T breast
HT29 colon = tested on: HT29 colon
IGROV1 ovarian = tested on: IGROV1 ovarian
K-562 leukemia = tested on: K-562 leukemia
KM12 colon = tested on: KM12 colon
LOX IMVI melanoma = tested on: LOX IMVI melanoma
M14 melanoma = tested on: M14 melanoma
MALME-3M melanoma = tested on: MALME-3M melanoma
MCF7 breast = tested on: MCF7 breast
MDA-MB-231 breast = tested on: MDA-MB-231 breast
MDA-MB-435 = tested on: MDA-MB-435
MOLT-4 leukemia = tested on: MOLT-4 leukemia
NCI-H226 lung = tested on: NCI-H226 lung
NCI-H23 lung = tested on: NCI-H23 lung
NCI-H322M lung = tested on: NCI-H322M lung
NCI-H460 lung = tested on: NCI-H460 lung
NCI-H522 lung = tested on: NCI-H522 lung
NCI/ADR-RES ovarian = tested on: NCI/ADR-RES ovarian
OVCAR-3 ovarian = tested on: OVCAR-3 ovarian
OVCAR-4 ovarian = tested on: OVCAR-4 ovarian
OVCAR-5 ovarian = tested on: OVCAR-5 ovarian
OVCAR-8 ovarian = tested on: OVCAR-8 ovarian
PC-3 prostate = tested on: PC-3 prostate
RPMI-8226 leukemia = tested on: RPMI-8226 leukemia
RXF 393 renal = tested on: RXF 393 renal
SF-268 CNS = tested on: SF-268 CNS
SF-295 CNS = tested on: SF-295 CNS
SF-539 CNS = tested on: SF-539 CNS
SK-MEL-2 melanoma = tested on: SK-MEL-2 melanoma
SK-MEL-28 melanoma = tested on: SK-MEL-28 melanoma
SK-MEL-5 melanoma = tested on: SK-MEL-5 melanoma
SK-OV-3 ovarian = tested on: SK-OV-3 ovarian
SN12C renal = tested on: SN12C renal
SNB-19 CNS = tested on: SNB-19 CNS
SNB-75 CNS = tested on: SNB-75 CNS
SR leukemia = tested on: SR leukemia
SW-620 colon = tested on: SW-620 colon
T-47D breast = tested on: T-47D breast
TK-10 renal = tested on: TK-10 renal
U251 CNS = tested on: U251 CNS
UACC-257 melanoma = tested on: UACC-257 melanoma
UACC-62 melanoma = tested on: UACC-62 melanoma
UO-31 renal = tested on: UO-31 renal

C/C=C\C(O)(C(=O)OC1CCN(C)CC1)C1CCCCC1 (stereo unspecified)
GI50 (786-0 renal): > 100 µM | TGI (786-0 renal): > 100 µM | GI50 (A498 renal): > 100 µM | TGI (A498 renal): > 100 µM | GI50 (A549 NSCLC): > 100 µM | TGI (A549 NSCLC): > 100 µM | GI50 (ACHN renal): > 100 µM | TGI (ACHN renal): > 100 µM | GI50 (CAKI-1 renal): 37.7 µM | TGI (CAKI-1 renal): > 100 µM | GI50 (CCRF-CEM leukemia): > 100 µM | TGI (CCRF-CEM leukemia): > 100 µM | GI50 (COLO 205 colon): > 100 µM | TGI (COLO 205 colon): > 100 µM | GI50 (DU-145 prostate): > 100 µM | TGI (DU-145 prostate): > 100 µM | GI50 (EKVX NSCLC): > 100 µM | TGI (EKVX NSCLC): > 100 µM | GI50 (HCC-2998 colon): > 100 µM | TGI (HCC-2998 colon): > 100 µM | GI50 (HCT-116 colon): > 100 µM | TGI (HCT-116 colon): > 100 µM | GI50 (HCT-15 colon): > 100 µM | TGI (HCT-15 colon): > 100 µM | GI50 (HL-60(TB) leukemia): > 100 µM | TGI (HL-60(TB) leukemia): > 100 µM | GI50 (HOP-62 NSCLC): > 100 µM | TGI (HOP-62 NSCLC): > 100 µM | GI50 (HOP-92 NSCLC): > 100 µM | TGI (HOP-92 NSCLC): > 100 µM | GI50 (HS 578T breast): > 100 µM | TGI (HS 578T breast): > 100 µM | GI50 (HT29 colon): > 100 µM | TGI (HT29 colon): > 100 µM | GI50 (IGROV1 ovarian): > 100 µM | TGI (IGROV1 ovarian): > 100 µM | GI50 (K-562 leukemia): > 100 µM | TGI (K-562 leukemia): > 100 µM | GI50 (KM12 colon): > 100 µM | TGI (KM12 colon): > 100 µM | GI50 (LOX IMVI melanoma): > 100 µM | TGI (LOX IMVI melanoma): > 100 µM | GI50 (M14 melanoma): > 100 µM | TGI (M14 melanoma): > 100 µM | GI50 (MALME-3M melanoma): > 100 µM | TGI (MALME-3M melanoma): > 100 µM | GI50 (MCF7 breast): > 100 µM | TGI (MCF7 breast): > 100 µM | GI50 (MDA-MB-231 breast): > 100 µM | TGI (MDA-MB-231 breast): > 100 µM | GI50 (MDA-MB-435): > 100 µM | TGI (MDA-MB-435): > 100 µM | GI50 (MOLT-4 leukemia): > 100 µM | TGI (MOLT-4 leukemia): > 100 µM | GI50 (NCI-H226 lung): > 100 µM | TGI (NCI-H226 lung): > 100 µM | GI50 (NCI-H23 lung): > 100 µM | TGI (NCI-H23 lung): > 100 µM | GI50 (NCI-H322M lung): > 100 µM | TGI (NCI-H322M lung): > 100 µM | GI50 (NCI-H460 lung): > 100 µM | TGI (NCI-H460 lung): > 100 µM | GI50 (NCI-H522 lung): > 100 µM | TGI (NCI-H522 lung): > 100 µM | GI50 (NCI/ADR-RES ovarian): > 100 µM | TGI (NCI/ADR-RES ovarian): > 100 µM | GI50 (OVCAR-3 ovarian): > 100 µM | TGI (OVCAR-3 ovarian): > 100 µM | GI50 (OVCAR-4 ovarian): > 100 µM | TGI (OVCAR-4 ovarian): > 100 µM | GI50 (OVCAR-5 ovarian): > 100 µM | TGI (OVCAR-5 ovarian): > 100 µM | GI50 (OVCAR-8 ovarian): > 100 µM | TGI (OVCAR-8 ovarian): > 100 µM | GI50 (PC-3 prostate): > 100 µM | TGI (PC-3 prostate): > 100 µM | GI50 (RPMI-8226 leukemia): > 100 µM | TGI (RPMI-8226 leukemia): > 100 µM | GI50 (RXF 393 renal): > 100 µM | TGI (RXF 393 renal): > 100 µM | GI50 (SF-268 CNS): > 100 µM | TGI (SF-268 CNS): > 100 µM | GI50 (SF-295 CNS): > 100 µM | TGI (SF-295 CNS): > 100 µM | GI50 (SF-539 CNS): > 100 µM | TGI (SF-539 CNS): > 100 µM | GI50 (SK-MEL-2 melanoma): > 100 µM | TGI (SK-MEL-2 melanoma): > 100 µM | GI50 (SK-MEL-28 melanoma): > 100 µM | TGI (SK-MEL-28 melanoma): > 100 µM | GI50 (SK-MEL-5 melanoma): > 100 µM | TGI (SK-MEL-5 melanoma): > 100 µM | GI50 (SK-OV-3 ovarian): > 100 µM | TGI (SK-OV-3 ovarian): > 100 µM | GI50 (SN12C renal): > 100 µM | TGI (SN12C renal): > 100 µM | GI50 (SNB-19 CNS): 41.6 µM | TGI (SNB-19 CNS): > 100 µM | GI50 (SNB-75 CNS): 80.1 µM | TGI (SNB-75 CNS): > 100 µM | GI50 (SR leukemia): > 100 µM | TGI (SR leukemia): > 100 µM | GI50 (SW-620 colon): 25.2 µM | TGI (SW-620 colon): 63.1 µM | GI50 (T-47D breast): > 100 µM | TGI (T-47D breast): > 100 µM | GI50 (TK-10 renal): > 100 µM | TGI (TK-10 renal): > 100 µM | GI50 (U251 CNS): > 100 µM | TGI (U251 CNS): > 100 µM | GI50 (UACC-257 melanoma): > 100 µM | TGI (UACC-257 melanoma): > 100 µM | GI50 (UACC-62 melanoma): > 100 µM | TGI (UACC-62 melanoma): > 100 µM | GI50 (UO-31 renal): > 100 µM | TGI (UO-31 renal): > 100 µM

Reference: PubChem BioAssay (NCI)
